Source: patent US20080227832A1, “Modified Coffee, Method of Roasting Coffee Bean, Coffee-Like Supplement and Auxiliary Food” (TAMA-TLO Corporation, priority 2004, published 2008)

Assay: Metabolites in 24-hour urine of rats given Maillard reaction products orally (HPLC)
Conditions: rat
Experimental: Then, 100 μl of acetonitrile/phosphate buffer (7/93) adjusted to pH 2.0 was injected into the HPLC apparatus through the injection microsyringe. The apparatus and the experimental conditions were the same as those described above.
The specification of the HPLC apparatus and experimental conditions were the same as described above.

O=Cc1ccc[nH]1 [pyrrole-2-aldehyde]
extent of metabolism of the administered amount (50 mg/kg oral, urine collected after 24 hours): the total amount of what was administered was metabolized
conversion by metabolism in liver (50 mg/kg, 24-hour urine): converted into a group C compound
